# Values quoted from earlier work, collected in publication PMC8802617 (Bioorganic & medicinal chemistry, 2018).
# Chains of the proteins cited; added tags and fusions are not shown.
# UniProt P35372, whole entry: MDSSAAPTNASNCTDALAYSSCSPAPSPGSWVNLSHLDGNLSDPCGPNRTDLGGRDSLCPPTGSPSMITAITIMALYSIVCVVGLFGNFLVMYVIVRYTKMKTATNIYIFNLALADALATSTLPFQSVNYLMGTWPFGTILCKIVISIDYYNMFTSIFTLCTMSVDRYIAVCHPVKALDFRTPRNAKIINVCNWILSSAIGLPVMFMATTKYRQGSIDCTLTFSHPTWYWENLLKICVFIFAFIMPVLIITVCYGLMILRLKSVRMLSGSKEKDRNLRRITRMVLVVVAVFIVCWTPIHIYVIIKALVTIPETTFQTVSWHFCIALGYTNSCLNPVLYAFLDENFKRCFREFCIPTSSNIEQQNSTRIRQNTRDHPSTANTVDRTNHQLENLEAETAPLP
# Molecular target: MOR (Homo sapiens, UniProt P35372)
# Details: read-out: MOR Ki; literature value ref 6; cited from earlier work
substance,measurement,value
Biphalin,Ki,12 ± 2 nM
